Experiments:
SMO = SMO (Mus musculus, UniProt P56726); experiment: BODIPY-cyclopamine competition assay; format: binding; details: read-out: IC50 (nM, BODIPY-cyclopamine inhib.); competition with BODIPY-cyclopamine
Procedure: BODIPY assay was performed to determine competition with cyclopamine as described previously, [66].

The chains behind the UniProt entries cited, without tags or fusion partners. Residues count along the entry.
UniProt P56726, 33-793 limits assumed: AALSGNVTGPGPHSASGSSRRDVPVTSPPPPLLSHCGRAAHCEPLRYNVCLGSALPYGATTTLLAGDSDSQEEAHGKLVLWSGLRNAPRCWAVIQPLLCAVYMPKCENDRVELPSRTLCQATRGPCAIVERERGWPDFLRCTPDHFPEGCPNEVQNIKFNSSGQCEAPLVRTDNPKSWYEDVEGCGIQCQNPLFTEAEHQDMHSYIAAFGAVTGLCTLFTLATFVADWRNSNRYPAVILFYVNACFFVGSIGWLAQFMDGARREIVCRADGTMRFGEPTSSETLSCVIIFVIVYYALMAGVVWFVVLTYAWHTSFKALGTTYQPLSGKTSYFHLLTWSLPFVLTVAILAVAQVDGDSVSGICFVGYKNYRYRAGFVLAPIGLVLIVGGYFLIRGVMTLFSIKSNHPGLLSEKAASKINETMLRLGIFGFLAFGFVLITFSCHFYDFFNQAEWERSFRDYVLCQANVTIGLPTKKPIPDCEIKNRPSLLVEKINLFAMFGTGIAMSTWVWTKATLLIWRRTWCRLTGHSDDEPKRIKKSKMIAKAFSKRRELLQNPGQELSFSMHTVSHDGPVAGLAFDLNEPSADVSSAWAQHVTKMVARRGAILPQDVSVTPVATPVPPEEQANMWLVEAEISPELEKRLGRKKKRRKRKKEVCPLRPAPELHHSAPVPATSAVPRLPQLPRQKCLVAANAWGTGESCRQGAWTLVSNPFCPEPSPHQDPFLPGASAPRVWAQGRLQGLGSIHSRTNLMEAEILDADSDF

[1] = test system: Hh pathway in Shh-L2 cells; experiment: Hh reporter assay in Shh-L2 cells; details: for reduction of activity relative to MS-0022: Shh-L2 cells; for IC50: read-out: IC50 (Shh-L2), pathway inhibition in Shh induced Shh-L2 cells, 48 hours treatment

Row | IC50 (SMO) | IC50 [1] | SMILES | reduction of activity relative to MS-0022 [1]
1 | 93 nM | 161 nM | Cc1cccn2cc(-c3ccc(NC(=O)c4ccccc4F)cc3)nc12 | 1.6 fold
2 | 287 nM | 181 nM | COc1ccc(C(=O)Nc2ccc(-c3cn4ccccc4n3)cc2)cc1 | 1.8 fold
